The text below walks through data of patent US10729695B2, “Amino, amido and heterocyclic compounds as modulators of RAGE activity and uses thereof” (The Research Foundation for the State University of New York, priority 2013, dated 2020).

Sequences of proteins named here, by UniProt entry; tags and fusion partners are left off. Residues count along the entry.
UniProt Q15109, 364-404: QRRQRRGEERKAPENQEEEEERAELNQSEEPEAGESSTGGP

This assay deals with RAGE tail (Homo sapiens (Human), UniProt Q15109). In words: RAGE tail fluorescence titration (Kd determination). As to conditions: binding to RAGE tail. How it is done:
Binding affinities of small molecules for either CT-RAGE or FH1 are determined by performing fluorescence titrations to generate binding isotherms and standard SPR experiments.
A number of representative amino and amido compounds of this invention were or can be tested for their inhibitory activity.
(§1) Fluorescence quenching was used to determine binding.
A number of representative heterocylic compounds of this invention were or can be tested for their inhibitory activity.
as §1, §1

The compound `COc1cc(NC(C)=O)c(Cl)cc1C(=O)Nc1nccs1` [CB-6] came in with a dissociation constant (Kd) of 0.1 ± 0.05 nM.

For the compound `CC1=NN(c2nc3ccccc3[nH]2)C(=O)C1CCC(C)C` (centres unmarked) [CB-10], the equilibrium dissociation constant (Kd) was 3.1 ± 0.3 nM.
